# Experimental data as given in patent US20060135484A1, “Vesicant treatment with phenyl-thiophene type vitamin d receptor modulators” (published 2006).
# Chains of the proteins cited; added tags and fusions are not shown. Residues count along the entry.
# UniProt P11473, 127-423 limits assumed: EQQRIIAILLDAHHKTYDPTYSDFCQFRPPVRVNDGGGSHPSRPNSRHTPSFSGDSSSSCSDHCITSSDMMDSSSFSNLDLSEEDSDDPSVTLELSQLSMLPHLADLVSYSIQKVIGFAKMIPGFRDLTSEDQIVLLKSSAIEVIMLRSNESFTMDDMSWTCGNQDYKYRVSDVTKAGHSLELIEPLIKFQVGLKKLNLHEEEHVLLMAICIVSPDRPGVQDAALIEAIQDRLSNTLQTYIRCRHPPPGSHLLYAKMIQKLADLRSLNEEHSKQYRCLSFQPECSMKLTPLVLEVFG
# How the values were obtained:
# [1] = biological target: RXR-VDR heterodimer (Gal4-RXR-DEF and VP16-VDR-LBD) (Homo sapiens, UniProt P11473); assay: RXR-VDR heterodimerization assay (SaOS-2 cells); settings: read-out: RXR-VDR (SaOS-2 cells) EC50
# [2] = biological target: VDR (pGal4-VDR-LBD) (Homo sapiens, UniProt P11473); assay: VDR CTF (Caco-2 cell co-transfection assay); settings: read-out: VDR CTF (Caco-2 cells) EC50
# [3] = test system: rat osteocalcin promoter; assay: OCN (osteocalcin) promoter assay; settings: read-out: OCN Promoter EC50
Molecule,EC50 [1] [nM],EC50 [2] [nM],EC50 [3] [nM]
CCC(CC)(c1ccc(OCC(=O)C(C)(C)C)c(C)c1)c1cc(C)c(S(=O)(=O)NC(=O)C(C)C)s1,1050,–,–
CCC(CC)(c1ccc(CCC(O)C(C)(C)C)c(C)c1)c1cc(C)c(C(=O)O)s1 (stereo not drawn),688,–,–
CCC(CC)(c1ccc(OCC(=O)C(C)(C)C)c(C)c1)c1cc(C)c(C(=O)N(C)CC(=O)O)s1,385,–,–
CCC(CC)(c1ccc(OCC(O)C(C)(C)C)c(C)c1)c1cc(C)c(S(=O)(=O)Nc2ccccc2C(=O)O)s1 (stereo not drawn),372,1210,–
CCC(CC)(c1ccc(OCC(=O)C(C)(C)C)c(C)c1)c1cc(C)c(S(=O)(=O)NC(=O)C2CC2)s1,1780,–,–
CCC(CC)(c1ccc(OCC(=O)C(C)(C)C)c(C)c1)c1cc(C)c(S(=O)(=O)NC(=O)COC)s1,1070,–,–
CCC(CC)(c1ccc(OCC(O)C(C)(C)C)c(C)c1)c1cc(C)c(C(=O)NCC(=O)O)s1 (stereo not drawn),10,–,–
CCC(CC)(c1ccc(OCC(O)C(C)(C)C)c(C)c1)c1cc(C)c(COCC(=O)O)s1 (stereo not drawn),453,–,–
CCc1cc(C(CC)(CC)c2ccc(C(=O)O)s2)ccc1OCC(C)(O)C(C)(C)C (stereo not drawn),372,1030,–
CCC(=O)NS(=O)(=O)c1sc(C(CC)(CC)c2ccc(OCC(=O)C(C)(C)C)c(C)c2)cc1C,649,–,–
CCC(CC)(c1ccc(OCC(C)(O)C(C)(C)C)c(OC)c1)c1ccc(C(=O)N[C@@H](C)C(=O)O)s1 (stereo partly drawn),859,1110,–
Cc1cc(C2(c3ccc(OCC(=O)C(C)(C)C)c(C)c3)CCCCC2)ccc1OCC(=O)C(C)(C)C,2430,–,–
CCC(CC)(c1ccc(OCC(O)C(C)(C)C)c(C)c1)c1cc(C)c(C(=O)N(C)OC)s1 (stereo not drawn),10.7,1150,–
CCC(CC)(c1ccc(OCC(O)C(C)(C)C)c(C)c1)c1cc(C)c(C(=O)NCC(=O)OC)s1 (stereo not drawn),2.5,856,–
CCC(CC)(c1ccc(OCC(O)C(C)(C)C)c(C)c1)c1ccc(C(=O)O)s1 (stereo not drawn),469,–,–
CCC(CC)(c1ccc(OCC(O)C(C)(C)C)c(C)c1)c1cc(C)c(S(=O)(=O)NC(C)=O)s1 (stereo not drawn),732,2410,–
"CCCc1cc(C(CC)(CC)c2ccc(C(=O)O)s2)ccc1OCC(C)(O)C(C)(C)C (single isomer, unassigned)",485,658,–
"CCCc1cc(C(CC)(CC)c2ccc(C(=O)N[C@@H](C)C(=O)O)s2)ccc1OCC(C)(O)C(C)(C)C (single isomer, unassigned)",8.13,85,–
CCC(CC)(c1ccc(CCC(O)C(C)(C)C)c(C)c1)c1cc(C)c(C(=O)NCC(=O)O)s1 (stereo not drawn),362,–,–
CCCc1cc(C(CC)(CC)c2ccc(S(=O)(=O)NCC(=O)O)s2)ccc1OCC(O)C(C)(C)C (stereo not drawn),236,484,–
"CCc1cc(C(CC)(CC)c2ccc(S(=O)(=O)NCC(=O)OC)s2)ccc1OCC(O)C(C)(C)C (single isomer, unassigned)",171,470,–
"(5-{1-Ethyl-1-[4-(2-hydroxy-3,3-dimethyl-butoxy)-3-methyl-phenyl]-propyl}-thiophene-2-sulfonylamine)-acetic acid methyl ester",474,–,110
CCC(O)(CC)COc1ccc(C(CC)(CC)c2cc(C)c(C(=O)NCC(=O)O)s2)cc1C,822,–,–
CCC(CC)(c1ccc(OCC(=S)C(C)(C)C)c(C)c1)c1cc(C)c(S(=O)(=O)N[C@H](C)C(=O)O)s1,352,–,–
CCC(=O)NS(=O)(=O)c1sc(C(CC)(CC)c2ccc(OCC(O)C(C)(C)C)c(C)c2)cc1C (stereo not drawn),401,1340,–
CCC(CC)(c1ccc(OCC(O)C(C)(C)C)c(C)c1)c1cc(C)c(CO)s1 (racemic),–,–,144

Molecule,EC50 [1] [nM],EC50 [2] [nM],EC50 [3] [nM]
CCCc1cc(C(CC)(CC)c2ccc(C(=O)O)s2)ccc1OCC(C)(O)C(C)(C)C (stereo not drawn),189,320,–
CCC(CC)(c1ccc(OCC(=O)C(C)(C)C)c(C)c1)c1ccc(OC[C@H](O)C(C)(C)C)c(C)c1,430,891,–
CCC(CC)(c1ccc(OCC(O)C(C)(C)C)c(C)c1)c1cc(C)c(-c2n[nH]c(=S)o2)s1 (stereo not drawn),418,782,–
"3′-[4-(2-hydroxy-2,3,3-trimethylbutoxy)-3-n-propylphenyl]-3′-[5-carboxy-thiophen-2-yl]pentane",542,–,118
CCOC(=O)CSCc1sc(C(CC)(CC)c2ccc(OCC(=O)C(C)(C)C)c(C)c2)cc1C,134,781,–
CCC(C)[C@H](NC(=O)c1sc(C(CC)(CC)c2ccc(OCC(O)C(C)(C)C)c(C)c2)cc1C)C(=O)OC (stereo partly drawn),505,–,–
CCC(CC)(c1ccc(OCC(C)(O)C(C)(C)C)c(C)c1)c1ccc(C(=O)O)s1 (stereo not drawn),548,1280,–
"CCCc1cc(C(CC)(CC)c2ccc(C(=O)O)s2)ccc1OCC(O)C(C)(C)C (single isomer, unassigned)",51.1,599,–
CCOC(=O)CCNS(=O)(=O)c1sc(C(CC)(CC)c2ccc(OCC(O)C(C)(C)C)c(C)c2)cc1C (stereo not drawn),437,–,–
CCC(CC)(c1ccc(OCC(=O)C(C)(C)C)c(C)c1)c1cc(C)c(C(=O)N(C)OC)s1,23.8,1670,–
"CCC(CC)(c1ccc(OCC(O)C(C)(C)C)c(C)c1)c1ccc(S(=O)(=O)NCC(=O)O)s1 (single isomer, unassigned)",376,–,–
CCC(CC)(c1ccc(OCC(=O)C(C)(C)C)c(C)c1)c1cc(C)c(S(=O)(=O)N(C)CCC(=O)O)s1,284,–,–
CCC(CC)(c1ccc(OCC(O)C(C)(C)C)c(C)c1)c1cc(C)c(CN(CC(=O)O)C(C)=O)s1 (racemic),337,1110,–
CCC(CC)(c1ccc(OCC(=O)C(C)(C)C)c(C)c1)c1cc(C)c(S(N)(=O)=O)s1,–,–,131
CCC(CC)(c1ccc(OCC(=O)C(C)(C)C)c(C)c1)c1cc(C)c(C(=O)NCC(=O)O)s1,187,1480,–
CCC(CC)(c1ccc(CCC(O)C(C)(C)C)c(C)c1)c1cc(C)c(S(=O)(=O)NCC(=O)OC)s1 (stereo not drawn),–,–,25.5
CCC(CC)(c1ccc(CCC(O)C(C)(C)C)c(C)c1)c1cc(C)c(C(=O)OC)s1 (stereo not drawn),58.9,1100,–
CCC(C)[C@H](NC(=O)c1sc(C(CC)(CC)c2ccc(OCC(O)C(C)(C)C)c(C)c2)cc1C)C(=O)O (stereo partly drawn),559,–,–
CCC(CC)(c1ccc(OCC(O)C(C)(C)C)c(C)c1)c1cc(C)c(S(=O)(=O)N[C@H](C)C(=O)O)s1 (stereo partly drawn),257,715,–
"CCc1cc(C(CC)(CC)c2ccc(S(=O)(=O)NCC(=O)O)s2)ccc1OCC(O)C(C)(C)C (single isomer, unassigned)",271,799,–
CCC(CC)(c1ccc(CCC(O)C(C)(C)C)c(C)c1)c1cc(C)c(S(=O)(=O)NCC(=O)O)s1 (racemic),142,279,–
CCC(CC)(c1ccc(OCC(O)C(C)(C)C)c(C)c1)c1cc(C)c(C(=O)N[C@@H](CC(=O)O)C(=O)O)s1 (stereo partly drawn),503,889,–
"CCC(CC)(c1ccc(OCC(O)C(C)(C)C)c(C)c1)c1cc(C)c(S(=O)(=O)N[C@H](C)C(=O)OC)s1 (single isomer, unassigned)",104,1130,–
"CCC(CC)(c1ccc(OCC(C)(O)C(C)(C)C)c(C)c1)c1ccc(C(=O)NCC(=O)O)s1 (single isomer, unassigned)",83.8,899,–
CCC(CC)(c1ccc(OCC(O)C(C)(C)C)c(C)c1)c1cc(C)c(S(=O)(=O)NC(C)(C)C(=O)OC)s1 (stereo not drawn),848,1150,–
